From patent US11866405B2, “Substituted indazoles as IRAK4 inhibitors” (AstraZeneca AB, priority 2020, dated 2024)
pIC50: −log10 of the molar value.

By UniProt entry, the sequences of proteins in these tests, tags left out.
UniProt Q9NWZ3, whole entry: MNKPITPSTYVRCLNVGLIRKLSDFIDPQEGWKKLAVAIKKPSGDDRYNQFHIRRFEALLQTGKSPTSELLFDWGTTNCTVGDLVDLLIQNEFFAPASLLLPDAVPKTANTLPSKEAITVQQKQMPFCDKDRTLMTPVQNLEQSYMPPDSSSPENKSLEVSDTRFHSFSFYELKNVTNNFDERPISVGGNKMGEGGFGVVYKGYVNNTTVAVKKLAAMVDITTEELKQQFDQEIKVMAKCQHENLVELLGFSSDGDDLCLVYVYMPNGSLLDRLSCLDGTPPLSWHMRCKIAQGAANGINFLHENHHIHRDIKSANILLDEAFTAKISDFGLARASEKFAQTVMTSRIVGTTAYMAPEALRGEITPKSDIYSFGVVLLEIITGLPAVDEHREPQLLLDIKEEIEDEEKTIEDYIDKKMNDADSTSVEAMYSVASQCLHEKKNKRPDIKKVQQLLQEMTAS

Columns and labels:
[1] = target: IRAK4 auto-phosphorylation (Homo sapiens (Human), UniProt Q9NWZ3); assay: IRAK4 phosphorylation cell assay in IL-1β-stimulated Karpas-299 cells; conditions: read-out: IRAK4 Cell IC50, IL-1β 22.7 ng/mL, pIRAK4 (Thr345/Ser346), geometric mean of at least 2 experiments
Method: IRAK4 Phosphorylation Cell Assay
The activation of IRAK4 by TLR or IL-1R ligands leads to IRAK4 auto-phosphorylation, which can be prevented by IRAK4 kinase inhibitors. The effect of IRAK4 inhibitor compounds on IRAK4 auto-phosphorylation was assessed in IL-1β-stimulated Karpas-299 cells as a measurement of cellular potency. Karpas-299 cells were cultured in RPMI 1640 (Gibco 61870-010) containing 10% FBS (Gibco #10270). Cells were plated at 2×10^4 cells per well in poly-D-lysine coated 384 well plates (Corning #356663) to which compounds had been added at various concentrations (10 point half log dose response with a final top concentration of 30 μM) using an Echo 655 (Labcyte Inc). Cells were centrifuged (250 g, 4 mins), incubated at 37° C. for 1 h, then stimulated with 22.7 ng/mL recombinant IL-1β (R&D Systems, #201-LB-025) at 37° C. for 10 mins, followed by fixation in 4% paraformaldehyde for 10 mins and permeabilization in ice-cold 70% MeOH for 30 mins. Cells were washed twice with phosphate-buffered saline (PBS) on a BlueWasher (BlueCatBio) then blocked with PBS containing 10% FBS for 20 mins. […] Images were analysed in Columbus (PerkinElmer) and the fluorescence intensity per cell from the secondary antibody was quantified. The quantified data were analysed in Genedata Screener 15 (Genedata AG). […]

[2] = target: human recombinant IRAK4 protein (Homo sapiens (Human), UniProt Q9NWZ3); assay: IRAK4 enzyme assay (mass spectrometry readout); conditions: read-out: IRAK4 Enzyme IC50; 3 mM ATP, 0.2 nM enzyme; geometric mean of at least n=2, * single experiment
Method: Potency of IRAK4 Inhibitor Compounds in IRAK4 Enzyme Assay
The inhibitory activity of compounds against IRAK4 were determined in an enzymatic assay using mass spectrometry readout. Ten point half-log compound concentration response curves, with a top concentration of 1 μM or 10 μM, were generated from 10 mM stocks of compound solubilized in DMSO using an Echo 655 (Labcyte Inc) and added to 384 well assay plates (Greiner #781280). To the assay plates, 10 μL of human recombinant IRAK4 protein (Life Technologies #PV4002) diluted to a final concentration of 0.2 nM in assay buffer (50 mM Tris-HCl pH 7.4, 10 mM MgCl, 5 mM glutathione, 0.01% BSA, 3 mM ATP) was added. The enzyme was incubated with the compounds at room temperature for 15 minutes before a peptide substrate ([…], Innovagen custom synthesis, 10 mM in DMSO) was added to each well to a final concentration of 10 μM using an Echo 655 (Labcyte Inc). After two hours at room temperature, the reaction was stopped with 90 μL of 0.4% formic acid (Merck #33015). The unphosphorylated and phosphorylated peptide were measured by LC-MS/MS on a Waters TQ-S mass spectrometer. Peaks were integrated using the TargetLynx software and the ratios between phosphorylated and unphosphorylated peptides were calculated. Curves were fitted and compound potencies determined in Genedata Screener 15 (Genedata AG). […]

[3] = test system: IL-1β stimulated IL-8 release in hTHP1 cells; assay: IL-1β-induced IL-8 release in human THP-1 monocyte cell line; conditions: read-out: hTHP1, IL1β stim, IL8 release red. IC50; THP-1 cells, IL-1β 1.8 ng/mL, 18 h; geometric mean of at least n=2, * n = 1
Method: Effect of IRAK4 Inhibitors on IL-1β-Induced Cytokine Release in Human THP-1 Monocyte Cell Line
THP-1 cells were cultured in RPMI 1640 (Gibco 72400-021) containing 10% FBS (Gibco 10270-106), 1 mM Na-pyruvate (Gibco 11360-070) and 100 U/mL Penicillin-Streptomycin (Gibco 15140-122). Cells were plated at 5×10^4 cells per well in 384 well Echo certified plates (Labcyte PPT-0200) to which compounds had been added at various concentrations (10 point half log dose response with a final top concentration of 10 μM) using an Echo 655 (Labcyte Inc). The plate was incubated for 1 h at 37° C., then recombinant […] (R&D Systems 201-LB-025/CF) was added to a final concentration of 1.8 ng/mL. The plates were incubated at 37° C. for 18h. The plates were centrifuged at 250×g for four minutes, then 1.6 μL of the cell supernatant was transferred to a white low volume 384 well plate (Greiner #784075) using acoustic dispensing on an Echo 655. […] Afterwards, 200 nL of donor bead solution (5 mg/mL) was added, the plate sealed and briefly centrifuged, then incubated for 1 h before being read on an Envision plate reader to allow determination the concentration of IRAK4 inhibitor required to effect a 50% reduction in the amount of IL-8 released following IL-1β stimulation in THP1 cells (Table 2). The quantified data were analysed in Genedata Screener 15 (Genedata AG). […]

pIC50 [1] | pIC50 [2] | pIC50 [3] | SMILES
< 4.52 | < 6.00 |  | COc1cc2nn(C3CCC4(CCC(=O)N4C)CC3)cc2cc1C(=O)Nc1cnn2cccnc12 (single isomer, unassigned) [Example 11]
7.48 | 9.00 | 7.54 | COc1cc2nn(C3CCC4(CCC(=O)N4C)CC3)cc2cc1C(=O)Nc1cnn2cccnc12 (single isomer, unassigned) [Example 12]
